Experimental data: patent US11136295B2, “D-amphetamine compounds, compositions, and processes for making and using the same” (KemPharm, Inc., priority 2018, dated 2021)

Tests used:
[1] = Oral pharmacokinetic study in rats (plasma amphetamine by LC-MS/MS); type: in vivo; conditions: d-amphetamine in plasma; rat, oral gavage, 5.6 μmol/kg; 6-hour time course
Experimental: Conjugates of d-amphetamine, and d-amphetamine sulfate or lisdexamfetamine dimesylate comparator compound were dissolved in an appropriate vehicle and administered in rats via oral gavage at doses of 5.6 μmol/kg. Whole blood samples were collected via retro-orbital bleeding at 0.25, 0.5, 1, 2, 4, and optionally at 3 and 6 hours postdose. Blood samples were centrifuged and the resulting plasma samples were collected for analysis of amphetamine concentrations by LC-MS/MS.

[2] = Intranasal pharmacokinetic study in rats (plasma amphetamine by LC-MS/MS); type: in vivo, rat; conditions: compared to AMP-CO2CH2-nicotinate(Et), FIG. 31

Substance	AUC0-4 hr [1] [ng·h/mL]	AUC0-6 hr [1] [ng·h/mL]	Cmax [1] [ng/mL]	Tmax [1] [h]	exposure to d-amphetamine after intranasal administration compared to the nicotinate analogue [2]
d-amphetamine-CO2CH2-isonicotinoyl-beta-alanine ethyl ester [AMP-CO2CH2-isonicotinoyl-β-Ala-OEt]	103.2	148.7	39.8	2.1	
d-amphetamine-CO2CH2-isonicotinate ethyl ester [AMP-CO2CH2-isonicotinate(Et)]					decreases exposure to d-amphetamine
